Results reported in patent US20220308043A1, “FLUORESCENT PROBES FOR IDENTIFICATION AND QUANTIFICATION OF HEPATIC TRANSPORTERS IN VITRO AND IN VIVO” (Université d'Orléans, priority 2021, published 2022).

Columns and labels:
[1] = tested on: primary human hepatocyte (PHH); assay: Uptake evaluation, Test group 1: active transport or passive diffusion (37° C. vs 4° C.) in hepatocyte suspension; settings: probe 5 μM, 30 minutes, 37° C. and 4° C.
Method: Four batches of primary human hepatocyte (PHH) are used for in vitro uptake assay:
Cryopreserved PHH are thawed in one-step Hepatocyte Thawing/Plating medium (MIL130) and then cells number and viability were evaluated with trypan blue exclusion test prior to cell treatment.
Influx study. Cryopreserved PHH are thawed in one-step Hepatocyte Thawing/Plating medium (MIL130) and then the cell number and viability are evaluated with trypan blue exclusion test prior to cell treatment. The cells were grown in MW96 at a density of 0.2*10^6/well.
Incubation for uptake evaluation. Incubation buffer: HBSS buffer containing 10 mM Herpes and 0.1% BSA, pH 7.4
The active uptake of each probe was tested according to the Test group 1 conditions. The results are presented in the table below as the percentage of active uptake compared to total uptake.

OATs = assay: Uptake evaluation, Test group 2: probe uptake in PHH with Indomethacine/Diclofenac (OATs inhibitor); settings: conclusion from % of inhibition
NTCP = molecular target: T1, NTCP (Homo sapiens, UniProt Q14973); assay: Uptake evaluation, Test group 2: probe uptake in PHH with Myrcludex (NTCP inhibitor); format: in vitro ADME; settings: conclusion from % of inhibition
T1 construct: Cryopreserved PHH are thawed in one-step Hepatocyte Thawing/Plating medium; endogenous in cells; host or cells: cryopreserved primary human hepatocytes (PHH)
T1 sequence (Q14973 1-349): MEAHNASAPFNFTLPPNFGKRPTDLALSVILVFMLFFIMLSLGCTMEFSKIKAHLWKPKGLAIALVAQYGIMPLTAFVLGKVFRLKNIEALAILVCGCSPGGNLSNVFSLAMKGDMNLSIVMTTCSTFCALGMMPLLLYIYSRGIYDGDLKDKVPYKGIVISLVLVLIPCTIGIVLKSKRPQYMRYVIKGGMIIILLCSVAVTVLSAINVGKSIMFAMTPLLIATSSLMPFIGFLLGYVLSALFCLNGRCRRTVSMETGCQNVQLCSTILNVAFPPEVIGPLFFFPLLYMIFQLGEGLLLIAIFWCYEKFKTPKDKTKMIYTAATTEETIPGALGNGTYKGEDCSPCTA

Tauro-nor-THCA-24-DBD [reference compound]
Active uptake classification [1]: High
% Active uptake (Mean value) ([1]; active uptake compared to total uptake): 83%
involvement of OATs in the uptake of the probe (OATs): partially the participation of OATs
involvement of NTCP in the uptake of the probe (NTCP): major involvement of NTCP
